Values of other authors, collected in US20140274800A1, “TRANSCRIPTION FACTOR DECOYS FOR THE TREATMENT AND PREVENTION OF INFECTIONS CAUSED BY BACTERIA INCLUDING CLOSTRIDIUM DIFFICILE” (PROCARTA BIOSYSTEMS LTD., priority 2013, published 2014).

Details: in mice; cited from earlier work

SMILES: Cc1cc(N)c2ccccc2[n+]1CCCCCCCCCC[n+]1c(C)cc(N)c2ccccc21 [dequalinium]
- MTD: 15 mg/kg
